1 compound from ChEMBL document CHEMBL3580533, “Antagonism/Agonism modulation to build novel antihypertensives selectively triggering i1-imidazoline receptor activation” (ACS Med Chem Lett, 2015) can be followed below.

Amino acid sequences for entries named in this document (tags omitted). A change or cut given only in a name is not applied to a line headed by its entry.
UniProt Q4G017: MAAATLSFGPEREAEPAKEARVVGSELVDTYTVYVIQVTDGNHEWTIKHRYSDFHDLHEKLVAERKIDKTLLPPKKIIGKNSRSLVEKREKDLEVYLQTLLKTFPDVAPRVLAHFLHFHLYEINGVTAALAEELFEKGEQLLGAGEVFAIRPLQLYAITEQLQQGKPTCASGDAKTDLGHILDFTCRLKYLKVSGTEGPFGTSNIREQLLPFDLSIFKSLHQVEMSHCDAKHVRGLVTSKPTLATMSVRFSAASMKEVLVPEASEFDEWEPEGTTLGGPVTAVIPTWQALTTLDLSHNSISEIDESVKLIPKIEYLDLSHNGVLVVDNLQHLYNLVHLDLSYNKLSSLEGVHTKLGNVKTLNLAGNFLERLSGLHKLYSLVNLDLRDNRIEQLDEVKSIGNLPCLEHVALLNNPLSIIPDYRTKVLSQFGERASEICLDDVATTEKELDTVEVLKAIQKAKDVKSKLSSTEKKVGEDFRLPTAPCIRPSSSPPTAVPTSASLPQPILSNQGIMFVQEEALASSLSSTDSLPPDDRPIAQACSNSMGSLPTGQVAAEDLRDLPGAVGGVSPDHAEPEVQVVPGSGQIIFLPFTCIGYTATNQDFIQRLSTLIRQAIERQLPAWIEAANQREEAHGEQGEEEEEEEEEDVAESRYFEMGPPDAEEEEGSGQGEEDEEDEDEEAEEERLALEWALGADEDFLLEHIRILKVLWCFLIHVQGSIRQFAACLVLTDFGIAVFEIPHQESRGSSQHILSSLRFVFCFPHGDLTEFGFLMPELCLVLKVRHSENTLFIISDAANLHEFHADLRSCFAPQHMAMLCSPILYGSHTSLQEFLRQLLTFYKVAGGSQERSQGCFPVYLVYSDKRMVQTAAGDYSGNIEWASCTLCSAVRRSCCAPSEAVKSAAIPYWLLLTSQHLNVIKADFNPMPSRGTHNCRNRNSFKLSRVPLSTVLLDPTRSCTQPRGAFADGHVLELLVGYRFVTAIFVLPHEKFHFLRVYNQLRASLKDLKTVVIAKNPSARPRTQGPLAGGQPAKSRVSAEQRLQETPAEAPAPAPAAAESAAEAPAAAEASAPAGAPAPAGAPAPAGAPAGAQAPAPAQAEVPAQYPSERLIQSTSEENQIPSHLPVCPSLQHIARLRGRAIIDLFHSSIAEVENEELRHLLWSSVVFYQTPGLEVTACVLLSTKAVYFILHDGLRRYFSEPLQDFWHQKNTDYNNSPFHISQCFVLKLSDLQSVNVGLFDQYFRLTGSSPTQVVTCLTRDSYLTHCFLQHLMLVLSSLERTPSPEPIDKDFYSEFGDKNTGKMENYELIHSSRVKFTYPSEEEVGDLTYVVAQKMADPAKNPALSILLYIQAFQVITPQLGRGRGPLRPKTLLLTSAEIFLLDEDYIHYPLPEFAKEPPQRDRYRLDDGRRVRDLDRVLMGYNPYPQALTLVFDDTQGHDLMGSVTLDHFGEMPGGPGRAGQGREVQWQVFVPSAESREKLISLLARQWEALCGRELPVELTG

One assay has as its system PC-12. The assay is described as follows: Selectivity ratio, […]-imidazoline receptor in rat PC12 cell membranes to […] adrenoreceptor in rat cortex membranes. The assay is classed as cell-based.
The next assay has as its target Nischarin (Rattus norvegicus, UniProt Q4G017). The assay can be described thus: Displacement of [125I]-p-iodoclonidin from I1-imidazoline receptor in rat PC12 cell membranes. Further details: species or system PC-12.

Broadly, the Ki is a measure of affinity in units of concentration, obtained from inhibition or displacement. High values mean weaker binding, low ones tighter binding. With `CC(Cc1ccccc1)C1=NCCN1` (configuration not stated), the Ratio in the assay with PC-12 is 708. The compound further gave a Ki at Nischarin of 5.01 nM.
